These results are taken from US20100035871A1, “BENZOXAZINE DERIVATIVES AND USES THEREOF” (priority 2006, published 2010).

Amino acid sequences for entries named in this document (tags omitted). Residues count along the entry.
UniProt P28335, 33-458: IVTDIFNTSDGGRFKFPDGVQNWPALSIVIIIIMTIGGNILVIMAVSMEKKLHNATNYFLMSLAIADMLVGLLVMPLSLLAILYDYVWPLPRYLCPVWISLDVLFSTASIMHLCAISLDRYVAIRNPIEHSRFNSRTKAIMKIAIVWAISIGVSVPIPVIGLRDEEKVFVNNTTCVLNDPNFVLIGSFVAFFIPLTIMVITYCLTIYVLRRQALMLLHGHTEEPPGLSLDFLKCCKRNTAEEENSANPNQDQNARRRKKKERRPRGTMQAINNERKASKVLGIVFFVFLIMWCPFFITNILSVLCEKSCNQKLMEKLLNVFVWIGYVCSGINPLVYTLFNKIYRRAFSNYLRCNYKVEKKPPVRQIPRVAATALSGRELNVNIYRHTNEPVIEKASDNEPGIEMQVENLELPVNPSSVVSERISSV

Assay [1] addresses T1, human 5-HT2C receptor (Homo sapiens, UniProt P28335).
T1 construct: expressed in transfected cells; host or cells: CHO (Chinese Hamster Ovary) cells; membrane preparation
Nature of the assay: 5-HT2C receptor binding, [125I]DOI displacement, membranes of transfected CHO cells. Particulars: reference compounds; value (95% confidence interval); [125I]DOI binding.

Assay [2] concerns the target T1, human 5-HT2C receptor. Put plainly: 5-HT2C receptor-stimulated calcium mobilization (FLIPR) in CHO cells. In kind it is cell-based. The note with it: reference compounds. For orientation: A change in cytosolic calcium serves as a functional read-out for many receptors and channels.

Take `Clc1cccc(N2CCNCC2)c1` [mCPP, meta-chlorophenylpiperazine, reference compound]: the Ki at human 5-HT2C receptor [1] stood at 6.5 nM. In addition, at human 5-HT2C receptor [2], the EC50 amounted to 5.4 nM.

As usually defined, the Ki is the dissociation constant of the complex between target and ligand, obtained from inhibition or displacement. Lower therefore signals tighter binding. A word on the EC50: it is the concentration giving half of the maximal effect.
